Assay outcomes as filed in PubChem BioAssay.
Hits are enriched below; roughly 0.92% of the tested compounds scored in any of these assays.
GALK inhibitor: inhibitors of human galactokinase; AID 1868; 0.007% of 270,000 active; Potency, µM (highest dose often 57.5 µM), usual class: inhibitors; Purified GALK, Kinase-Glo residual ATP luminescence
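Kinase-Glo Plus luminescence measured ATP left after a 1 h room-temperature reaction. The reaction used 5 nM GALK, 100 uM galactose and 35 uM ATP at pH 8.0 (20 mM HEPES, 5 mM MgCl2, 60 mM NaCl, 1 mM DTT, 0.01% BSA).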
RXFP1 ag: activates the human relaxin receptor RXFP1; Q9HBX9; HEK293T-RXFP1 cAMP TR-FRET, 30 min; response scale: percent of porcine relaxin response, buffer zero; Potency, µM (top dose mostly 57.5 µM), hits mostly activators; 0.3% of 370,000 active; also: nearly all actives have a fitted effect of over 60% in size
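HEK293 cells stably expressing RXFP1, treated 30 min at 37C with compounds plus PDE4 inhibitor Ro 20174; cAMP measured by HTRF TR-FRET. Normalized to buffer and 29 nM porcine relaxin; EC50 by Hill fit.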
PKM2 act: PKM2 (human) enzyme activation; purified PKM2, Kinase-Glo ATP luminescence, activation; response scale: 0% is enzyme alone, no compound; P14618; 0.34% of 260,000 active; Potency, µM (top dose mostly 57.5 µM), usual class: activators; AID 1631; also: nearly all actives have a fitted effect of over 55% in size
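hPK-M2, >95% pure; 0.1 mM ADP / 0.5 mM PEP final; imidazole pH7.2 buffer w/ 7 mM MgCl2, 50 mM KCl; 1 h RT; Kinase-Glo lum. Intermediate enzyme activity for dual inhibitor/activator qHTS.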
Luc counter: Kinase-Glo luciferase inhibition (counter-screen). Q27757. Kinase-Glo luciferase, ATP luminescence, 8 min. Potency, µM (highest dose often 38.3 µM), hits mostly inhibitors. 0.28% of 200,000 active. AID 1379; also: nearly all actives have a fitted effect of over 60% in size
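Substrate mix (final 50 mM imidazole pH 7.2, 50 mM KCl, 7 mM MgCl2, 10 uM ATP, 0.01% Tween 20, 0.05% BSA) plus pin-tool compound, then Kinase-Glo detection mix; 8 min ambient, luminescence read.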
miR-21 reporter: miR-21 reporter, rising signal; HeLa miR-21 FLuc reporter, luciferase, 48 h; Potency, µM (titrated, usually from 38.3 µM); AID 2288; 340,000 tested, under 10 active; active = well fitted rising curve with a large enough effect; inconclusive = small, poorly fitted or top-dose-only effect; inactive = no such curve, though single readings can be large or run the other way;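 further: miR-21 action dims this reporter so a rising signal means less miR-21 action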
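HeLa cells endogenously expressing miR-21, stably carrying CMV-driven firefly luciferase with a downstream miR-21 binding site, 2000 cells/well. Titrations up to approximately 40 uM, 48 hours; luciferase luminescence read.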
RXFP1 antagonist: antagonists of human relaxin receptor RXFP1. Q9HBX9. HEK293-RXFP1, relaxin-stimulated cAMP HTRF, 30 min; active compounds read low. activity change, negative = inhibition, % at 57.5 µM. 0.59% of 350,000 active;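 active = activity change of -60% or lower, but not beyond a set lower limit; inconclusive = change between -60% and -40%, or beyond the set limit; inactive = change above -40%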
A number is an active result; - = inactive; ? = inconclusive; . = not tested or not shown; [ ] = another dose, or the depositor's remark. Unless noted, calls follow the shape of the dose curve; as a rule, active = well fitted curve in the direction sought with a large enough effect; inconclusive = small, poorly fitted or top-dose-only effect, or another doubt; inactive = no such curve, though single readings can be large; an effect the other way counts as inactive or inconclusive.

SMILES | GALK inhibitor | RXFP1 ag | PKM2 act | Luc counter | miR-21 reporter | RXFP1 antagonist
O=C(NCC1CCCO1)c1ccc(Cn2c(=S)[nH]c3ccccc3c2=O)cc1 (stereo not drawn) | - | - | - | - | - | ?
CCOCCCNC(=O)c1ccc(Cn2c(=S)[nH]c3c([nH]c4ccc(OC)cc43)c2=O)cc1 | - | - | - | - | - | -
COc1ccc2[nH]c3c(=O)n(Cc4ccc(C(=O)NCC5CCCO5)cc4)c(=S)[nH]c3c2c1 (stereo not drawn) | - | - | - | - | - | -89.0
CC(=O)c1ccc(O)c(C(N)=O)c1 | . | . | . | . | . | -
COc1cccc([C@@H]2Oc3ccc(OC)cc3C[C@H]2OC(=O)N[C@H](C)C2CCCCC2)c1 | . | . | . | - | . | .
O=C(C1CCCCC1)N1CC(=O)N2CCCc3ccccc3C2C1 (stereo not drawn) | . | . | . | . | . | -
CCOc1ccc(NC(=O)C(=O)NCC(c2cccnc2)N2CCc3ccccc32)cc1 (stereo not drawn) | . | - | . | . | - | -64.3
COC(=O)c1ccc(NC(=O)C(=O)NCC(c2cccnc2)N2CCc3ccccc32)cc1 (stereo not drawn) | . | - | . | . | - | -
Cc1ccc(CN(C)C(=O)C2CCCN2C(=O)c2cccs2)o1 (stereo not drawn) | - | - | 14.1µM | - | - | -
CC1(C)S[C@@H]2[C@H](C(=O)O)N=C(Cc3ccccc3)N2[C@H]1C(=O)O | . | . | . | -[7.66 µM] | . | .
Cc1ccc(N2C(=O)[C@@H]3[C@H](C2=O)[C@H]2C=CC=NN2[C@@H]3C(=O)Nc2ccccc2)cc1 | - | - | ? | . | - | -
O=C(Nc1ccccc1)[C@@H]1[C@@H]2C(=O)N(c3ccc(F)cc3)C(=O)[C@@H]2[C@H]2C=CC=NN21 | - | - | 8.91µM | . | - | -
CCCCC/C=C\C/C=C\C/C=C\CCCCCCC(=O)O[C@H](COCCCCCCCCCCCCCCCC)COP(=O)([O-])OCC[N+](C)(C)C | . | . | . | - | . | .
COc1ccc(CN(C)CC(O)COc2ccc(C(=O)c3ccccc3)cc2)c(OC)c1OC (stereo not drawn) | - | - | - | . | - | -
COc1ccc(Br)cc1CN(C)CC(O)COc1ccc(Br)cc1 (stereo not drawn) | - | - | . | . | - | -63.5
O=C(CCCCn1c(=S)[nH]c2ccsc2c1=O)NCc1ccco1 | - | - | - | - | - | -81.1
Cc1ccccc1Cn1c(=O)n(CCCC(=O)NCc2ccco2)c(=O)c2sccc21 | - | - | - | - | - | -
O=C(CCCn1c(=S)[nH]c2ccsc2c1=O)NCc1ccco1 | - | - | - | - | - | -78.1
CO[C@@]1(NC(=O)CSC(F)F)C(=O)N2C(C(=O)O)=C(CSc3nnnn3CCO)CO[C@@H]21 | . | . | . | . | . | -
CC[C@H]1C2=C3C(CC[C@H]4C(OCc5ccc(F)cc5C(F)(F)F)OC[C@](C)([C@@H]34)N(C(=O)OC(C)(C)C)C2)C(COC)C1COC (stereo partly drawn) | . | . | - | - | . | .
C=CCNC(=O)/C(C#N)=C/c1cc(Br)ccc1OC | - | - | - | - | - | -67.7
Nc1ccc(C(=O)OCC(O)CO)cc1 (stereo not drawn) | . | . | . | . | . | -
CN=CC1=C(O)c2ccccc2C1=O | - | - | - | - | - | -
COc1ccc(N=CC2=C(O)c3ccccc3C2=O)cc1 | - | - | - | 4.47µM | - | -
O=C1C(C=Nc2ccccc2)=C(O)c2ccccc21 | - | - | - | 12.6µM | - | -
N#Cc1ccc(CS(=O)(=O)c2nnnn2-c2ccccc2)cc1 | . | . | . | - | . | .
CCc1sc(C(=O)N2CCc3ccccc32)cc1C | - | - | - | 11.2µM | - | -
CCNS(=O)(=O)c1ccc(NC(=O)c2ccc(Cn3cc([N+](=O)[O-])cn3)o2)cc1 | - | - | 17.8µM | . | - | -
CCOC(=O)c1nnc(-c2ccc(C)cc2)nc1N1CCSCC1 | - | - | - | - | - | -68.1
CCOC(=O)c1nnc(-c2ccc(C)cc2)nc1Sc1ccc(Cl)cc1 | - | - | - | - | - | -
